Values of other authors as cited in patent US20160250208A1, “TREATING ORGAN-SPECIFIC T CELL MEDIATED AUTOIMMUNE DISEASES” (UNIVERSITY OF MASSACHUSETTS, priority 2013, published 2016).

Tests used:
[1] = system: NOD mice; details: Lenschow et al., J Exp Med. 1995; cited from earlier work
[2] = system: T1D patients; details: Orban et al., Lancet 2011; cited from earlier work

Abatacept: a fusion protein that binds to and sequesters B7
protection of NOD mice from diabetes [1]: protected from diabetes | outcome in T1D patients [2]: preservation of beta-cell mass for over two years
